Experimental data from paper PMC9897792, “Discovery of novel 2-(4-(benzyloxy)-5-(hydroxyl) phenyl) benzothiazole derivatives as multifunctional MAO-B inhibitors for the treatment of Parkinson’s disease” (Journal of Enzyme Inhibition and Medicinal Chemistry, 2023).

Protein sequences, listed by entry. Tags and fused reporters are not part of them.
UniProt P21397, whole entry: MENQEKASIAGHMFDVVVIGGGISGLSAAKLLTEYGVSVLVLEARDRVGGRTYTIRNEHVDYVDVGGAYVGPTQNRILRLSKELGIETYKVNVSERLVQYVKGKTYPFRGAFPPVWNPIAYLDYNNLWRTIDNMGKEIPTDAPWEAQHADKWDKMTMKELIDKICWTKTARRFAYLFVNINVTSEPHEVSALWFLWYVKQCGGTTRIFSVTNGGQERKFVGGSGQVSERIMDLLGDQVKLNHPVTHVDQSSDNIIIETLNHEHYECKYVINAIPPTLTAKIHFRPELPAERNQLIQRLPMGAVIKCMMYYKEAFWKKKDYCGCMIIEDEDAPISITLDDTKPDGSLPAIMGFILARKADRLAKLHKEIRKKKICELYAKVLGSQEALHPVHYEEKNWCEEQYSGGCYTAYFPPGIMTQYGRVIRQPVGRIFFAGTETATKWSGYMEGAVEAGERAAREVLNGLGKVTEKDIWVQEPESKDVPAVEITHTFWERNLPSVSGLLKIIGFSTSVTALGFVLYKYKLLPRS

Target: MAO-A (Homo sapiens, UniProt P21397)
Assay: MAO-A inhibition, kynuramine method
Assay type: biochemical

`CC(C)NNC(=O)c1ccncc1` [Iproniazid, reference compound] showed an IC50 of 1870 ± 20 nM.
